Measurements: patent publication US20150366932A1, “METHODS FOR PRODUCING DIKETOPIPERAZINES AND COMPOSITIONS CONTAINING DIKETOPIPERAZINES” (AMPIO PHARMACEUTICALS, INC., priority 2013, published 2015)

Amino acid sequences for entries named in this document (tags omitted). Residues count along the entry.
UniProt P27487, 39-766 limits assumed: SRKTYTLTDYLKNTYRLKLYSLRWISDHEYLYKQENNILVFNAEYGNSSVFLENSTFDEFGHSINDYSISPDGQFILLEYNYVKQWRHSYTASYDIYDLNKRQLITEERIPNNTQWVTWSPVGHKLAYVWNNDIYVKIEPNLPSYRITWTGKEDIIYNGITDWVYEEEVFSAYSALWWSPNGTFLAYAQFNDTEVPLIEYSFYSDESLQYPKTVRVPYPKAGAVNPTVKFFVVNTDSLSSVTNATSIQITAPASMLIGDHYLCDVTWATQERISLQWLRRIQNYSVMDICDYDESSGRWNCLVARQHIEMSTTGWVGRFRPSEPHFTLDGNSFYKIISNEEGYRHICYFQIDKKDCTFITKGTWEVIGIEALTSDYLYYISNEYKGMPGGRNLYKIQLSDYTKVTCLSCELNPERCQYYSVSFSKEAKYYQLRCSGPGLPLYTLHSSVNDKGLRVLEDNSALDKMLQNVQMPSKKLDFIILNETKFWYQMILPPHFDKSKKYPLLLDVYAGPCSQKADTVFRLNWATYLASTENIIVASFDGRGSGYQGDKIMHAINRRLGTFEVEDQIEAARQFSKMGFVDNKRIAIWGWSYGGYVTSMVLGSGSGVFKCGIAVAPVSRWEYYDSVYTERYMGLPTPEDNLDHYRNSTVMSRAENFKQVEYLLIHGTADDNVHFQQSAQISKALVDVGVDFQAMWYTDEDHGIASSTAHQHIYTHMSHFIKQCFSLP

Biological target: T1, dipeptidyl peptidase IV (DPP-IV) (Homo sapiens, UniProt P27487)
T1 construct: the Cohn manufacturing process which isolates other plasma components such as DPP-IV; tissue CSL Behring LLC; Grifols Biologicals Inc; Octapharma USA Inc. (5% HSA products that contain the enzyme); host or cells: human plasma (Cohn fractionation; commercial 5% HSA solution)
Experiment: DPP-IV activity assay with chromogenic substrate Gly-Pro-pNA in HSA solutions
Type: biochemical
Conditions: 1%, 2.5% and 5% w/v HSA; 37° C., 24 hour
Protocol: DPP-IV activity was assayed by using a chromogenic substrate, Gly-Pro-pNA, as described in E. Nemoto, S. Sugawara, H. Takada, et al., Increase of CD26/dipeptidyl peptidase IV expression on human gingival fibroblasts upon stimulation with cytokines and bacterial components. Infect Immun 67 (1999) 6225-33. All reactions were carried out in DPP-IV assay buffer (pH 7.6) consisting of 0.1M HEPES, 0.12M NaCl, 5 mM KCl, 8 mM glucose, and 10 mg/ml bovine serum albumin (BSA). 5% commercial HSA, recombinant HSA, or buffer blank (0.9% NaCl) were combined with 1 mM Gly-Pro-pNA (DPP-IV substrate) in assay buffer or assay buffer only (−CON). Incubations were performed at 37° C. or 60° C. for 2-24 hours. […] All incubations were read at 405 nm (SpectraMax M2 spectrophotometer, Molecular Devices LLC, Sunnyvale, Calif., USA). Each reading at 405 nm was corrected by subtracting the A405 for the DPP-IV substrate-containing incubation from the corresponding A405 for the −CON incubation for each HSA solution tested.
The amount of pNA produced in μM was calculated based on the pNA molar extinction coefficient in HEPES buffer (see R. Lottenberg, C. M. Jackson, Solution composition dependent variation in extinction coefficients for p-nitroaniline. Biochim Biophys Acta 742 (1983) 558-64). […]
Dipeptidyl peptidase IV (DPP-IV) activity was assessed in commercial preparations of human serum albumin (HSA). […]

rHSA: recombinant HSA (ecoHSA) from Genlantis, produced in seeds of Asian Rice (Oryza sativa)
DPP-IV activity, cHSA versus rHSA: no significant DPP-IV activity
